Target: Recombinant Human DLL4 (human, UniProt Q9NR61 27-524)
Assay: SPR (BIACORE)
Description: The BIACORE assay (Biacore, Inc, Piscataway, N.J.) determines the affinity of antibodies or DVD-Ig with kinetic measurements of on-rate and off-rate constants. Binding of antibodies or DVD-Ig to a target antigen (for example, a purified recombinant target antigen) was determined by surface plasmon resonance-based measurements with a Biacore® 1000 or 3000 instrument (Biacore® AB, Uppsala, Sweden) using running HBS-EP (10 mM HEPES [pH 7.4], 150 mM NaCl, 3 mM EDTA, and 0.005% surfactant P20) at 25° C. All chemicals were obtained from Biacore® AB (Uppsala, Sweden) or otherwise from a different source as described in the text. For example, approximately 5000 RU of goat anti-mouse IgG, (Fcγ), fragment specific polyclonal antibody (Pierce Biotechnology Inc, Rockford, Ill.) diluted in 10 mM sodium acetate (pH 4.5) is directly immobilized across a CM5 research grade biosensor chip using a standard amine coupling kit according to manufacturer's instructions and procedures at 25 μg/ml. Unreacted moieties on the biosensor surface are blocked with ethanolamine. Modified carboxymethyl dextran surface in flowcell 2 and 4 is used as a reaction surface. Unmodified carboxymethyl dextran without goat anti-mouse IgG in flow cell 1 and 3 is used as the reference surface. For kinetic analysis, rate equations derived from the 1:1 Langmuir binding model are fitted simultaneously to association and dissociation phases of all eight injections (using global fit analysis) with the use of Biaevaluation 4.0.1 software. Purified antibodies or DVD-Ig are diluted in HEPES-buffered saline for capture across goat anti-mouse IgG specific reaction surfaces. Antibodies or DVD-Ig to be captured as a ligand (25 μg/ml) are injected over reaction matrices at a flow rate of 5 μl/min. The association and dissociation rate constants, kₒₙ (M⁻¹ s⁻¹) and koff (s⁻¹) are determined under a continuous flow rate of 25 μl/min. Rate constants are derived by making kinetic binding measurements at different antigen concentrations ranging from 10-200 nM. The equilibrium dissociation constant (M) of the reaction between antibodies or DVD-Igs and the target antigen is then calculated from the kinetic rate constants by the following formula: KD=koff/kₒₙ. Binding is recorded as a function of time and kinetic rate constants are calculated.

Protein sequences, listed by entry. Tags and fused reporters are not part of them. Residues count along the entry.
UniProt Q9NR61, 27-524 limits assumed: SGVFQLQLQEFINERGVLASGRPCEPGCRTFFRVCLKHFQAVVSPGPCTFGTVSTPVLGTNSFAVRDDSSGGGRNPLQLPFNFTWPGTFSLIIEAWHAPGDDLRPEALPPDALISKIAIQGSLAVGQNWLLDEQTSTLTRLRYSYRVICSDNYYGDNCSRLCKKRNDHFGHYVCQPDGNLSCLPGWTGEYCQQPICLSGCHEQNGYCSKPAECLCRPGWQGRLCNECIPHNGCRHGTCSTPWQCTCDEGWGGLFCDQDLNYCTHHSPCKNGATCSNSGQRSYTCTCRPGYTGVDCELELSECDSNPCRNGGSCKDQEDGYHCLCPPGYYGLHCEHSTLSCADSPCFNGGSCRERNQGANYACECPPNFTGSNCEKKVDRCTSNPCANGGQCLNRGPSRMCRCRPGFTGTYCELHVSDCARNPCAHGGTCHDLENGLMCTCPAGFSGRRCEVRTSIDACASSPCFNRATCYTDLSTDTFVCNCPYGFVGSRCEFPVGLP

B1: AB296 (antibody, V domains shown)
VH: EVQLVESGGGLVQPGGSLRLSCAVSGGSISSSSYYWGWIRQAPGKGLEWIGDIYYTGSTYYNPSLKSRVTISVDTSKNTFYLQMNSLRAEDTAVYYCARQALAMGGGSDKWGQGTLVTVSS
VL: DYQLTQSPSSLSASVGDRVTITCSGQRLGDKYASWYQQKPGKSPKLVIYEDSKRPSGIPSRFSGSNSGDDATLTISSLQPEDFATYYCQAWDRDTGVFGQGTKVEIKR
In the case of B1, the Kd is reported as 1.5 nM, the koff is reported as 0.00013 s⁻¹ and the kon is reported as 85000 M⁻¹ s⁻¹.

B2: AB310 (antibody, human IgG1, kappa, V domains shown)
VH: EVQLLESGGGLVQPGGSLRLSCAASGFTFSNFPMAWVRQAPGKGLEWVATISSSDGTTYYRDSVKGRFTISRDNSKNTLYLQMNSLRAEDTAVYYCARGYYNSPFAYWGQGTLVTVSS
VL: EIVMTQSPGTLSLSPGERATLSCRASEDIYSNLAWYQQKPGQAPRLLIYDTNNLADGVPDRFSGSGSGTDFTLTISRLEPEDFAVFYCQQYNNYPPTFGQGTKVEIKR
In the case of B2, the Kd is reported as 23 nM, the koff is reported as 0.0031 s⁻¹ and the kon is reported as 130000 M⁻¹ s⁻¹.

Source: patent publication US20120258108A1 (AbbVie / Abbott, published 2012)
